Reference: US12344644B2, “Amelioration and treatment of infarction damage with a polypeptide segement of BNIP3” (priority 2021, dated 2025)

Tested on: wild-type mice
Experiment: DOX treatment in vivo: serial echocardiography
Conditions: T1 (16 days) and T2 (42 days); DOX alone or with concurrent PepB

COc1cccc2c1C(=O)c1c(O)c3c(c(O)c1C2=O)C[C@@](O)(C(=O)CO)C[C@@H]3O[C@H]1C[C@H](N)[C@H](O)[C@H](C)O1 [DOX, doxorubicin]
negatively impaired: ejection fraction (EF %) | fractional shortening (FS %) | isovolumetric relaxation time (IVRT)
